Values of other authors, collected in patent US11464753B2, “Composition for treatment of neurodegenerative disease” (WINNING THE FIGHT INC., priority 2013, dated 2022).

Test system: ALS patients
Settings: background statement; cited from earlier work

For `Nc1nc2ccc(OC(F)(F)F)cc2s1` [Riluzole], the effect on survival is listed as “limited effect on survival”.
